# Source: US11584800B2, “Method of treating cancer comprising administration of anti-HER2 antibody-drug conjugate” (DAIICHI SANKYO COMPANY, LIMITED, priority 2014, dated 2023)
# Assays:
# [1] = system: colorectal cancer CTG-0401 tumor low or moderately expressing HER2; assay: Antitumor test (8), patient-derived colorectal cancer CTG-0401 in nude mice; assay type: in vivo, nude mouse; conditions: 10 mg/kg intravenously on Day 0; HER2 score 1+ or 2+; FIG. 10
# Procedure: This test was carried out by the following procedure. Evaluation Examples 11 to 13 were also carried out by this procedure.
# (§1) Mouse: 5- to 8-week-old female nude mice (Harlan Laboratories Ltd.) were subjected to the experiment.
# (§2) The calculation expression is as shown below. Tumor volume(mm^3)=0.52×Major axis (mm)×[Minor axis (mm)]^2
# Tumor (CTG-0401; Champions Oncology Inc.) excised from a colorectal cancer patient and maintained at several passages by transplantation to female nude mice was used in this test. This tumor low or moderately expressed HER2 (which received a score of 1+ or 2+ in immunohistochemical staining).
# (§3) A tumor section of the solid tumor was subcutaneously transplanted to the left side of the body of each female nude mouse, and the mice were randomly grouped when the tumor volume reached 100 to 300 mm^3. The date of grouping was defined as Day 0. […] An acetate buffer solution administration group was established as a control group.
# [2] = system: bile duct cancer CTG-0927 tumor highly expressing HER2; assay: Antitumor test (10), patient-derived bile duct cancer CTG-0927 in nude mice; assay type: in vivo, nude mouse; conditions: 10 mg/kg intravenously on Day 0; HER2 score 3+; FIG. 12
# From the text: as §1, §2
# Tumor (CTG-0927; Champions Oncology Inc.) excised from a bile duct cancer patient and maintained at several passages by transplantation to female nude mice was used in this test. This tumor highly expressed HER2 (which received a score of 3+ in immunohistochemical staining).
# as §3
# [3] = system: breast cancer ST910 tumor low expressing HER2; assay: Antitumor test (7), patient-derived breast cancer ST910 in nude mice; assay type: in vivo, nude mouse; conditions: 10 mg/kg intravenously on Day 0; HER2 score 1+; FIG. 9
# From the text: as §2
# (§4) Tumor (ST910; START) excised from a breast cancer patient and maintained at several passages by transplantation to female nude mice was used in this test. This tumor low expressed HER2 (which received a score of 1+ in immunohistochemical staining).
# as §3, with “the” for “the left”
# [4] = system: esophageal cancer CTG-0137 tumor highly expressing HER2; assay: Antitumor test (11), patient-derived esophageal cancer CTG-0137 in nude mice; assay type: in vivo, nude mouse; conditions: 10 mg/kg intravenously on Day 0; HER2 score 3+; FIG. 13
# From the text: as §1, §2
# Tumor (CTG-0137; Champions Oncology Inc.) excised from an esophageal cancer patient and maintained at several passages by transplantation to female nude mice was used in this test. This tumor highly expressed HER2 (which received a score of 3+ in immunohistochemical staining).
# as §3
# KPL-4 cells = assay type: in vivo, nude mouse
# From the text: The calculation expression is as shown below.
# An untreated group was established as a control group.
# [5] = system: non-small cell lung cancer CTG-0860 tumor moderately expressing HER2; assay: Antitumor test (9), patient-derived non-small cell lung cancer CTG-0860 in nude mice; assay type: in vivo, nude mouse; conditions: 10 mg/kg intravenously on Day 0; HER2 score 2+; FIG. 11
# From the text: as §1, §2
# Tumor (CTG-0860; Champions Oncology Inc.) excised from a non-small cell lung cancer patient and maintained at several passages by transplantation to female nude mice was used in this test. This tumor moderately expressed HER2 (which received a score of 2+ in immunohistochemical staining).
# as §3
# [6] = system: breast cancer ST225 tumor moderately expressing HER2; assay: Antitumor test (6), patient-derived breast cancer ST225 in nude mice; assay type: in vivo, nude mouse; conditions: 10 mg/kg intravenously on Day 0; HER2 score 2+; FIG. 8
# Procedure: This test was carried out by the following method.
# as §2
# as §4, with “(ST225; South Texas Accelerated Research Therapeutics (START))” for “(ST910; START)”, “moderately” for “low”, “2+” for “1+”
# as §3, with “the” for “the left”
# [7] = system: Human breast cancer line JIMT-1 cells; conditions: mouse, in vivo
substance,measurement,setting,value
"trastuzumab: humanized anti-HER2 antibody; heavy chain residues 1 to 449 of SEQ ID NO: 1, light chain residues 1 to 214 of SEQ ID NO: 2",growth of the colorectal cancer CTG-0401 tumor (tumor volume),[1],did not inhibit the growth
same,growth of the bile duct cancer CTG-0927 tumor (tumor volume),[2],did not inhibit the growth
same,growth of the breast cancer ST910 tumor (tumor volume),[3],did not inhibit the growth
same,growth of the esophageal cancer CTG-0137 tumor (tumor volume),[4],did not inhibit the growth
same,"tumor growth inhibitory effect (tumor volume), KPL-4","KPL-4 cells; 10 mg/kg intravenously at Days 15 and 22, FIG. 3",inhibited tumor growth
same,"notable signs such as weight loss of mice, KPL-4 test","KPL-4 cells; mouse, in vivo",free from notable signs such as weight loss
same,growth of the non-small cell lung cancer CTG-0860 tumor (tumor volume),[5],did not inhibit the growth
same,growth of the breast cancer ST225 tumor (tumor volume),[6],did not inhibit the growth
same,"weight loss of the mice, JIMT-1 test",[7],free from weight loss of the mice
